Source: patent US20250250267A1, “NITROGEN-CONTAINING BRIDGED HETEROCYCLIC COMPOUND, PREPARATION METHOD THEREFOR, AND MEDICAL USE THEREOF” (Jiangsu Hengrui Pharmaceuticals Co., Ltd., priority 2020, published 2025)

How the values were obtained:
[1] = target: human complement factor B (Homo sapiens (Human), UniProt P00751); assay: biochemical
[2] = system: passive heymann nephritis rats; assay: Therapeutic effects on Heymann nephritis in rats induced by sheep anti-rat Fx1A serum; assay type: in vivo; details: for decrease in the ratio of total protein/creatinine in rat urine compared to the model group: day 14
Description: Experimental animals: laboratory male SD rats, provided by Vital River Laboratory Animal Technology Co., Ltd. (production license number: SCXK (Zhejiang) 2019-0001; animal certificate number: 20210401Abzz0619000322; weighing 180-200 g at purchase).
After the acclimatization, the male SD rats were grouped as follows according to total protein in urine and body weight in the 2 days before the experiment:
On day 0 of the experiment, the model group and administration groups were given a single tail vein injection of Fx1A serum (5 mL/kg), and the normal group was given a tail vein injection of normal goat serum. […] The experiment ended on day 15. Two-hour urine was collected on days 2, 4, 6, 8, 11, and 14 and assayed for creatinine and total protein. Serum was collected on day 15 for complement activation fragment (C3d+iC3b) analysis.
The experimental data are expressed as mean±standard error (SEM). Statistical comparison was performed using Excel software t-test. The data of the model group and the data of the blank control group were analyzed and compared to judge whether a significant mathematical statistical significance exists. *P<0.05 indicates a significant difference between the model group and the blank control group, **P<0.01 indicates a highly significant difference between the model group and the blank control group, and ***P<0.001 indicates a very highly significant difference between the model group and the blank control group. #P<0.05 indicates a significant difference between an administration group and the model group, ##P<0.01 indicates a highly significant difference between an administration group and the model group, and ###P<0.001 indicates a very highly significant difference between an administration group and the model group.

| Compound | IC50 [1] | day from which statistical decreases in urine total protein/creatinine ratio began ([2]; 10 mg/kg (low-dose) orally twice daily) | decrease in the ratio of total protein/creatinine in rat urine compared to the model group ([2]; 10 mg/kg orally twice daily) | day from which statistical decreases in urine total protein/creatinine ratio began ([2]; 30 mg/kg (medium-dose) orally twice daily) | decrease in the ratio of total protein/creatinine in rat urine compared to the model group ([2]; 30 mg/kg orally twice daily) | day from which statistical decreases in urine total protein/creatinine ratio began ([2]; 90 mg/kg (high-dose) orally twice daily) | decrease in the ratio of total protein/creatinine in rat urine compared to the model group ([2]; 90 mg/kg orally twice daily) | dose dependence of the decrease in urine total protein/creatinine ratio ([2]; day 14, across dose groups) |
| --- | --- | --- | --- | --- | --- | --- | --- | --- |
| CCO[C@@H]1C[C@@H]2CCC(c3ccc(C(=O)O)cc3)(C1)N2Cc1c(OC)cc(C)c2[nH]ccc12 (stereo in doubt) [Example 1-2, 4-((1R,3R,5S)-3-Ethoxy-8-((5-methoxy-7-methyl-1H-indol-4-yl)methyl)-8-azabicyclo[3.2.1]octan-1-yl)benzoic acid] | 72.2 nM | – | – | – | – | – | – | – |
| CCO[C@H]1C[C@H]2CCC(c3ccc(C(=O)O)cc3)(C1)N2Cc1c(OC)cc(C)c2[nH]ccc12 (stereo in doubt) [Example 1-1, 4-((1S,3S,5R)-3-Ethoxy-8-((5-methoxy-7-methyl-1H-indol-4-yl)methyl)-8-azabicyclo[3.2.1]octan-1-yl)benzoic acid] | 1.3 nM | 11 days | 48.1% | 11 days | 70.9% | 8 days | 77.2% | significantly dose-dependent |
| CCO[C@H]1C[C@H]2CC[C@](c3ccc(C(=O)O)cc3)(C1)N2Cc1c(OC)cc(C)c2[nH]ccc12 (relative stereo) [Example 1, (±)-rel-4-((1S,3S,5R)-3-Ethoxy-8-((5-methoxy-7-methyl-1H-indol-4-yl)methyl)-8-azabicyclo[3.2.1]octan-1-yl)benzoic acid] | 4.2 nM | – | – | – | – | – | – | – |
